# Data taken from ChEMBL document CHEMBL4715770, “Inhibition of Low Molecular Weight Protein Tyrosine Phosphatase by an Induced-Fit Mechanism” (J Med Chem, 2016).
# What was measured:
# Homo sapiens [1] = species on record: Homo sapiens; experiment: Selectivity ratio of IC50 for inhibition of His-tagged CDC14A (unknown origin) to IC50 for inhibition of His-tagged LMW-PTP isoform A (unknown origin)
# Homo sapiens [2] = species on record: Homo sapiens; experiment: Selectivity ratio of IC50 for inhibition of His-tagged FAP1 (unknown origin) to IC50 for inhibition of His-tagged LMW-PTP isoform A (unknown origin)
# Homo sapiens [3] = species on record: Homo sapiens; experiment: Selectivity ratio of IC50 for inhibition of His-tagged PTP-H1 (unknown origin) to IC50 for inhibition of His-tagged LMW-PTP isoform A (unknown origin)
# Homo sapiens [4] = species on record: Homo sapiens; experiment: Selectivity ratio of IC50 for inhibition of His-tagged PTPsigma (unknown origin) to IC50 for inhibition of His-tagged LMW-PTP isoform A (unknown origin)
# Homo sapiens [5] = species on record: Homo sapiens; experiment: Selectivity ratio of IC50 for inhibition of His-tagged HePTP (unknown origin) to IC50 for inhibition of His-tagged LMW-PTP isoform A (unknown origin)
# Homo sapiens [6] = species on record: Homo sapiens; experiment: Selectivity ratio of IC50 for inhibition of His-tagged PTPbeta (unknown origin) to IC50 for inhibition of His-tagged LMW-PTP isoform A (unknown origin)
# Homo sapiens [7] = species on record: Homo sapiens; experiment: Selectivity ratio of IC50 for inhibition of His-tagged PTPalpha (unknown origin) to IC50 for inhibition of His-tagged LMW-PTP isoform A (unknown origin)
# Homo sapiens [8] = species on record: Homo sapiens; experiment: Selectivity ratio of IC50 for inhibition of His-tagged LAR (unknown origin) to IC50 for inhibition of His-tagged LMW-PTP isoform A (unknown origin)
# Homo sapiens [9] = species on record: Homo sapiens; experiment: Selectivity ratio of IC50 for inhibition of His-tagged VHR (unknown origin) to IC50 for inhibition of His-tagged LMW-PTP isoform A (unknown origin)
# Homo sapiens [10] = species on record: Homo sapiens; experiment: Selectivity ratio of IC50 for inhibition of His-tagged SSu72 (unknown origin) to IC50 for inhibition of His-tagged LMW-PTP isoform A (unknown origin)
# Homo sapiens [11] = species on record: Homo sapiens; experiment: Selectivity ratio of IC50 for inhibition of His-tagged TC-PTP (unknown origin) to IC50 for inhibition of His-tagged LMW-PTP isoform A (unknown origin)
# Homo sapiens [12] = species on record: Homo sapiens; experiment: Selectivity ratio of IC50 for inhibition of His-tagged SHP1 (unknown origin) to IC50 for inhibition of His-tagged LMW-PTP isoform A (unknown origin)
# Homo sapiens [13] = species on record: Homo sapiens; experiment: Selectivity ratio of IC50 for inhibition of His-tagged PTPgamma (unknown origin) to IC50 for inhibition of His-tagged LMW-PTP isoform A (unknown origin)
# Homo sapiens [14] = species on record: Homo sapiens; experiment: Selectivity ratio of IC50 for inhibition of His-tagged VHZ (unknown origin) to IC50 for inhibition of His-tagged LMW-PTP isoform A (unknown origin)
# Homo sapiens [15] = species on record: Homo sapiens; experiment: Selectivity ratio of IC50 for inhibition of His-tagged PTPepsilon (unknown origin) to IC50 for inhibition of His-tagged LMW-PTP isoform A (unknown origin)
# Homo sapiens [16] = species on record: Homo sapiens; experiment: Selectivity ratio of IC50 for inhibition of His-tagged MKP3 (unknown origin) to IC50 for inhibition of His-tagged LMW-PTP isoform A (unknown origin)
# Homo sapiens [17] = species on record: Homo sapiens; experiment: Selectivity ratio of IC50 for inhibition of His-tagged SHP2 (unknown origin) to IC50 for inhibition of His-tagged LMW-PTP isoform A (unknown origin)
# Homo sapiens [18] = species on record: Homo sapiens; experiment: Selectivity ratio of IC50 for inhibition of His-tagged PTPmu (unknown origin) to IC50 for inhibition of His-tagged LMW-PTP isoform A (unknown origin)
# Homo sapiens [19] = species on record: Homo sapiens; experiment: Selectivity ratio of IC50 for inhibition of His-tagged PP5 (unknown origin) to IC50 for inhibition of His-tagged LMW-PTP isoform A (unknown origin)
# Homo sapiens [20] = species on record: Homo sapiens; experiment: Selectivity ratio of IC50 for inhibition of His-tagged PTP1B (unknown origin) to IC50 for inhibition of His-tagged LMW-PTP isoform A (unknown origin)
# Homo sapiens [21] = species on record: Homo sapiens; experiment: Selectivity ratio of IC50 for inhibition of His-tagged CD45 (unknown origin) to IC50 for inhibition of His-tagged LMW-PTP isoform A (unknown origin)
# Homo sapiens [22] = species on record: Homo sapiens; experiment: Selectivity ratio of IC50 for inhibition of His-tagged PTP-PEST (unknown origin) to IC50 for inhibition of His-tagged LMW-PTP isoform A (unknown origin)
# Homo sapiens [23] = species on record: Homo sapiens; experiment: Selectivity ratio of IC50 for inhibition of His-tagged PTP-MEG2 (unknown origin) to IC50 for inhibition of His-tagged LMW-PTP isoform A (unknown origin)
# Homo sapiens [24] = species on record: Homo sapiens; experiment: Selectivity ratio of IC50 for inhibition of His-tagged LYP (unknown origin) to IC50 for inhibition of His-tagged LMW-PTP isoform A (unknown origin)
Compound,Ratio IC50 (Homo sapiens [1]),Ratio IC50 (Homo sapiens [2]),Ratio IC50 (Homo sapiens [3]),Ratio IC50 (Homo sapiens [4]),Ratio IC50 (Homo sapiens [5]),Ratio IC50 (Homo sapiens [6]),Ratio IC50 (Homo sapiens [7]),Ratio IC50 (Homo sapiens [8]),Ratio IC50 (Homo sapiens [9]),Ratio IC50 (Homo sapiens [10]),Ratio IC50 (Homo sapiens [11]),Ratio IC50 (Homo sapiens [12]),Ratio IC50 (Homo sapiens [13]),Ratio IC50 (Homo sapiens [14]),Ratio IC50 (Homo sapiens [15]),Ratio IC50 (Homo sapiens [16]),Ratio IC50 (Homo sapiens [17]),Ratio IC50 (Homo sapiens [18]),Ratio IC50 (Homo sapiens [19]),Ratio IC50 (Homo sapiens [20]),other results
O=C(Nc1ccc2nc(C(F)(F)F)[nH]c2c1)C(c1ccccc1)S(=O)(=O)O (stereo not drawn),> 35,> 35,> 35,> 35,> 35,> 35,> 35,> 35,> 35,> 35,> 35,> 35,> 35,> 35,> 35,> 35,> 35,> 35,> 35,> 35,Ratio IC50 (Homo sapiens [21]): > 35; Ratio IC50 (Homo sapiens [22]): > 35; Ratio IC50 (Homo sapiens [23]): > 35; Ratio IC50 (Homo sapiens [24]): > 35
O=C(Nc1nc2ccc([N+](=O)[O-])cc2s1)C(c1ccccc1)S(=O)(=O)O (stereo not drawn),> 50,> 50,> 50,> 50,> 50,> 50,> 50,> 50,> 50,> 50,> 50,> 50,> 50,> 50,> 50,> 50,> 50,> 50,> 50,> 50,Ratio IC50 (Homo sapiens [21]): > 50; Ratio IC50 (Homo sapiens [22]): > 50; Ratio IC50 (Homo sapiens [23]): > 50; Ratio IC50 (Homo sapiens [24]): > 50
